ALDH1A1 inh – blocks purified human ALDH1A1 activity; P00352; Purified ALDH1A1, NADH fluorescence, propionaldehyde substrate; Potency, µM (titrated, usually from 75.3 µM), for the others: at the top dose activity, negative = inhibition, usual class: inhibitors; 7.3% of 220,000 active; AID 1030; active = well fitted inhibition curve with a large enough effect, not every such curve was filed as active; inconclusive = small, poorly fitted or top-dose-only effect, or another doubt; inactive = no such curve, though single readings can be large or run the other way;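 note: potency is the fitted concentration of half-maximal effect; plate controls were no enzyme wells and a reference inhibitor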
JMJD2E inh – JMJD2E (human) inhibition; JMJD2E catalytic domain, FDH-coupled NADH fluorescence (FDH is formaldehyde dehydrogenase); Potency, µM (series often up to 57.1 µM), without a hit: at the highest dose activity change, negative = inhibition, actives largely listed as inhibitors; 1.6% of 230,000 active; active = well fitted inhibition curve with a large enough effect, not every such curve was filed as active; inconclusive = small, poorly fitted or top-dose-only effect, or another doubt; inactive = no such curve, though single readings can be large or run the other way;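 note: potency is the fitted concentration of half-maximal effect; 0% = wells with enzyme and -100% = buffer wells without enzyme; nearly all actives have a fitted effect of over 50% in size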
miR-21 FLuc – miR-21 reporter, rising signal; Potency, µM (titrated, usually from 38.3 µM), without a hit: at the highest dose reporter change, positive = more light; AID 2288; 340,000 tested, under 10 active; HeLa miR-21 FLuc reporter, luciferase, 48 h; active = well fitted rising curve with a large enough effect; inconclusive = small, poorly fitted or top-dose-only effect; inactive = no such curve, though single readings can be large or run the other way;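 note: % of control where 0% means no effect; miR-21 action dims this reporter so a rising signal means less miR-21 action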
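HeLa cells stably expressing CMV-driven firefly luciferase with a downstream miR-21 binding sequence, endogenously expressing miR-21, were treated with titrations (up to about 40uM final) for 48 hours at 37 degree Celsius. Luciferase luminescence was read after lysis.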
Lamin A splicing – LMNA splicing modulation; HeLa LMNA splicing GFP/RFP minigene ratio, 48 h; Potency, µM (doses to about 46.1 µM), inactives show at the top dose ratio change, negative = inhibition, usual class: inhibitors; 0.01% of 200,000 active; active = well fitted inhibition curve with a large enough effect in the signal ratio, with a control signal flat, not every such curve was filed as active; inconclusive = small, poorly fitted or top-dose-only effect, or effect the other way, or a change in a side signal; the % refers to the signal ratio; note: potency is the fitted concentration of half-maximal effect; % is set by controls: 0 for no effect and ±100 for the full control effect
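Read-out is the ratio of GFP to DsRed2 object intensity, acquired by 488 nm laser-scanning cytometry on HeLa lamin A-EGFP minigene reporter cells. Compound incubation 48 hrs at 37 °C in Opti-MEM with 2% FBS; DMSO 0.5% final.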
Sfp inh – inhibitors of Bacillus subtilis Sfp phosphopantetheinyl transferase | Biochemical Sfp PPTase activity, qHTS | AID 1490 | Potency, µM, for the others: max response, negative = inhibition, hits mostly inhibitors | actives 3.5% (n = 310,000) | Q9F4F7; active = well fitted inhibition curve with a large enough effect; inconclusive = small, poorly fitted or top-dose-only effect, or another doubt; inactive = no such curve, though single readings can be large or run the other way;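 also: the enzyme is Sfp with the accession as filed and its product quenches rhodamine fluorescence; potency is read from the fitted curve at half-maximal effect; 0% = enzyme reaction without inhibitor and -100% = no enzyme wells; top concentration of the series not given in the record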
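After 15 min at room temperature with compound, 15 nM Sfp received 5 uM rhodamine-CoA plus 12.5 uM BHQ-2-ybbR (50 mM Hepes pH 7.6, 10 mM MgCl2). Rate came from the fluorescence difference over 30 min, ex 525/em 598 nm.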
G9a block – G9a (human) methyltransferase inhibition; Q96KQ7; G9a H3K9 monomethylation, AlphaScreen, 2 h; Potency, µM (titrated, usually from 102 µM), for the others: at the top dose activity, negative = inhibition, most hits filed as inhibitors; 8.8% of 350,000 active; AID 504332; note: potency is the fitted concentration of half-maximal effect; % is set by controls: 0 for no effect and ±100 for the full control effect; nearly all actives have a fitted effect of over 75% in size
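Quantitative HTS format: methyltransferase activity on a biotin-tagged H3K9 peptide is measured by AlphaScreen, using a rabbit anti-monomethyl-H3K9 antibody with streptavidin donor and anti-IgG acceptor beads. Final levels are 20 nM enzyme, 500 nM peptide, 20 uM SAM; 2 h RT.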
An asterisk follows results filed as active; ? = inconclusive; . = no result given; [ ] = dose if it differs, or a comment. An excerpt weighted towards active compounds, which were near 13% of everything screened. Unless noted, calls come from the whole dose curve; as a rule, active = well fitted curve in the direction sought with a large enough effect; inconclusive = small, poorly fitted or top-dose-only effect, or another doubt; inactive = no such curve, though single readings can be large; an effect the other way counts as inactive or inconclusive.

1. COCCNC(=O)c1cc2c(=O)n3cccc(C)c3nc2n1C
2. Cc1nn(-c2ccccc2)c(-n2cccc2)c1C(=O)N1CCN(c2ccccc2)CC1
3. Cc1oc(CN2CCOCC2)cc1C(=O)O
4. Cc1ccc(Cc2cnc(NC(=O)C3Cc4ccc(C)cc4C(=O)O3)s2)cc1 (stereo not given)
5. OCCC1CN(C2CCC2)CCN1Cc1ccc(F)c(F)c1 (stereo not given)
6. COc1ccccc1-c1nnc(C2CCN(S(=O)(=O)c3ccccc3[N+](=O)[O-])CC2)o1
7. CC(=O)Nc1ccc(S(=O)(=O)N2CCC(c3nnc(-c4ccc(C)cc4)o3)CC2)cc1

compound no.,1,2,3,4,5,6,7
ALDH1A1 inh,?,.,9%,.,.,.,.
JMJD2E inh,?,.,6%,.,.,.,.
miR-21 FLuc,1%,15%,0%,-3%,-2%,-14%,6%
Lamin A splicing,-8%,.,.,.,.,.,.
Sfp inh,18%,.,11%,.,7%,-13%,50µM*
G9a block,28µM*,3%[59 µM],-30%,9%[59 µM],15%,40µM*,28µM*

Whole records, looked up by structure. Screens in order: ALDH1A1 inh	JMJD2E inh	miR-21 FLuc	Lamin A splicing	Sfp inh	G9a block
Entry for Cc1oc(CN2CCOCC2)cc1C(=O)O = 9%	6%	0%	.	11%	-30%
Entry for Cc1ccc(Cc2cnc(NC(=O)C3Cc4ccc(C)cc4C(=O)O3)s2)cc1 (stereo not given) = .	.	-3%	.	.	9%[59 µM]

Screening results from PubChem.
